Measured values reported in PubChem BioAssay (NCATS).
Several values for one entry are separate records, joined by “and”; a condition that tells them apart may be missing. Identical values can stand only once. Only a part is listed here, and it is no random draw. Results filed as inconclusive are left out. Some compounds were tested as several samples or in several runs, with calls that do not always agree. Activity calls are given as the source filed them. Unless noted, calls come from the whole dose curve; as a rule, active = well fitted curve in the direction sought with a large enough effect; inconclusive = small, poorly fitted or top-dose-only effect, or another doubt; inactive = no such curve, though single readings can be large; an effect the other way counts as inactive or inconclusive.

Sequences of proteins named here, by UniProt entry; tags and fusion partners are left off.
UniProt O15297, whole entry: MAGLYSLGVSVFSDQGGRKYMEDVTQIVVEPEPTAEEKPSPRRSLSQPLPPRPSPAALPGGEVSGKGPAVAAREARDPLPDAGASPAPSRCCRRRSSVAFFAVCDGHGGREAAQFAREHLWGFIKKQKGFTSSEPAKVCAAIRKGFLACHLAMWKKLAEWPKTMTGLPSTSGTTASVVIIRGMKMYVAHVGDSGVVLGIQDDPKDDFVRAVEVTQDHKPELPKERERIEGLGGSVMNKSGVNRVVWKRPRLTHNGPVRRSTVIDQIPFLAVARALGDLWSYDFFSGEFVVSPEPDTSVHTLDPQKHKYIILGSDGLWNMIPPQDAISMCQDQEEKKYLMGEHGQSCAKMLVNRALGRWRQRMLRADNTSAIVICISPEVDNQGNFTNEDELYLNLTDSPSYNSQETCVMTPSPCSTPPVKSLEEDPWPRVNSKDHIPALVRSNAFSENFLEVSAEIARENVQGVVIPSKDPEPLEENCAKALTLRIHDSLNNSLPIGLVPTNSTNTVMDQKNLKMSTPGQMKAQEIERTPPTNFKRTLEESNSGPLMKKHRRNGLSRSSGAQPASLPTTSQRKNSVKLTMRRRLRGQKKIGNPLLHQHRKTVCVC
UniProt Q99828, whole entry: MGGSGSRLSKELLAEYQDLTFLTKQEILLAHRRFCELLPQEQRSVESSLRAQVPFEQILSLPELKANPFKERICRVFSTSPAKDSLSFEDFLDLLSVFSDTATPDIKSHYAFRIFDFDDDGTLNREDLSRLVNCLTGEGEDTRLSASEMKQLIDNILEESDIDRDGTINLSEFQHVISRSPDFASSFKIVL
UniProt P10635, whole entry: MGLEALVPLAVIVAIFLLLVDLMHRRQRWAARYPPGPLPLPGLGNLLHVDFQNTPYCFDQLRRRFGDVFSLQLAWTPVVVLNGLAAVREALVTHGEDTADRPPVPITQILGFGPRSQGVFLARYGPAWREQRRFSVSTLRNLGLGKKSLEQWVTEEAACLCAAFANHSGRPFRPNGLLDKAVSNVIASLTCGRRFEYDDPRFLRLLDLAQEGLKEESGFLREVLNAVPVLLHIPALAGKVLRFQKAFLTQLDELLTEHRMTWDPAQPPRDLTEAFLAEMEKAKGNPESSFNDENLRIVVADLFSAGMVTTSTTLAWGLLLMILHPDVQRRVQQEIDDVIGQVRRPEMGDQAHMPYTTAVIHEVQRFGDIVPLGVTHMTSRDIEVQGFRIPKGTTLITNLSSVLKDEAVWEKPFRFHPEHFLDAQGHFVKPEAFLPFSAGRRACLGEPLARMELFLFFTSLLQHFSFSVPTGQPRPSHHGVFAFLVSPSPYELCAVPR
UniProt P08684, whole entry: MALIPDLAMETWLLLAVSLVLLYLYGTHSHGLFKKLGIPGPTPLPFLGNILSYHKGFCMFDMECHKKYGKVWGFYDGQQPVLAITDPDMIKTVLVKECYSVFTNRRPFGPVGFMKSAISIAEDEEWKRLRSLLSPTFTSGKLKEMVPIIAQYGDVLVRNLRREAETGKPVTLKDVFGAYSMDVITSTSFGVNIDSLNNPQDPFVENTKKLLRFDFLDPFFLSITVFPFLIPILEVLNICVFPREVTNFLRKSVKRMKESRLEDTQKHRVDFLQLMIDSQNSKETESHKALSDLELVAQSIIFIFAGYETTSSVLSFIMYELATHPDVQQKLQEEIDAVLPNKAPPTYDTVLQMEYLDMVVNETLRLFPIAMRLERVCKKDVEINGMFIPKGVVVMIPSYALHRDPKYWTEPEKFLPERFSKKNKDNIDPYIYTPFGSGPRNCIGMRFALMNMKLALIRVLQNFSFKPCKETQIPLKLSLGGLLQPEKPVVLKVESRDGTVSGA
UniProt P11712, whole entry: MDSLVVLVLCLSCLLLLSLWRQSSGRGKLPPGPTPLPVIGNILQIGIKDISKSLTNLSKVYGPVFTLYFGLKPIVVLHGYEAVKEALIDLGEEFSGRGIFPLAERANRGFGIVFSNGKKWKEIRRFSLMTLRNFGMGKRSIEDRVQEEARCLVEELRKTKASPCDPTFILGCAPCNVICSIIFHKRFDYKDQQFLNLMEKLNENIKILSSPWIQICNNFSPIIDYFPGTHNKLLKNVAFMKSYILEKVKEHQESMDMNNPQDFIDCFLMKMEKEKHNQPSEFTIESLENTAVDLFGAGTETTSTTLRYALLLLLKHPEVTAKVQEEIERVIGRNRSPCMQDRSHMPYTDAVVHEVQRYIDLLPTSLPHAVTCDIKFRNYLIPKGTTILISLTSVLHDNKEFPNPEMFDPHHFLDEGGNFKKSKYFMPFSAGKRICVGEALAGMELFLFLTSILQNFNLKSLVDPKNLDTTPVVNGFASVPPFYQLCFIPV
UniProt P07203, whole entry: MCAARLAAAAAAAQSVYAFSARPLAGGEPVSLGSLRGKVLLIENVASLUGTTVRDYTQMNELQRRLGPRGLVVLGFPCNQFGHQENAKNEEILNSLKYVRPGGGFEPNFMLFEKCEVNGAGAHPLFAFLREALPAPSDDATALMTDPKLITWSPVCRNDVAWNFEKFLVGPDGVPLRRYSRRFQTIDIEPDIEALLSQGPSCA
UniProt P36969, whole entry: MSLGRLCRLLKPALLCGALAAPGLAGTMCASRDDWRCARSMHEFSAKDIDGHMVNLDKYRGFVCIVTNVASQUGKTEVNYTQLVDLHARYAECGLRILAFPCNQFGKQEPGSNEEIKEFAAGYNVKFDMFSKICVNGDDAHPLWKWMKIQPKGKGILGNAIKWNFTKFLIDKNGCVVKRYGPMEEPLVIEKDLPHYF

Assays:
[1] = target: Protein phosphatase 1D (Homo sapiens) (UniProt O15297); test: Rhodamine-PBP qHTS Assay for Modulators of WT P53-Induced Phosphatase 1 (WIP1) (AID 1347425); settings: recombinant WIP1, Rhodamine-PBP phosphate fluorescence, real-time; at 116 µM (top of the series) unless noted; note: % of control where 0% means no effect
Procedure, shortened: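 5 nM WIP1 + 10 uM Rh-PBP, 50 mM Tris pH 7.5, 30 mM MgCl2, 1 mM TCEP, 0.1 mM EGTA, BSA; cpds pinned, 1 hr RT; + 10 uM phosphopeptide; fluorescence 1-min reads x 11 min; delta = f1 - f0.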

[2] = Primary qHTS for Huh7 cytotoxicity: counterscreen for inhibitors of MERS-S pseudotyped particle cell entry (AID 1479147; calls by dose curve; note: % is set by controls: 0 for no effect and ±100 for the full control effect); settings: cell viability read-out; at 57.1 µM (top of the series)
[3] = Primary qHTS for inhibitors of MERS-S pseudo-typed particle cell entry (AID 1479149; calls by dose curve; note: nearly all actives have a fitted effect of over 60% in size); settings: MERS-S pseudotyped particle entry, luciferase; at 57.1 µM (top of the series)
[4] = Primary qHTS for Vero E6 cytotoxicity: counterscreen for inhibitors of SARS-S pseudo-typed particle cell entry (AID 1479150; calls by dose curve; note: % is set by controls: 0 for no effect and ±100 for the full control effect); settings: cell viability; at 57.1 µM (top of the series)
[5] = Primary qHTS for inhibitors of La Crosse Virus (LACV) - induced cell death in SH-SY5Y cells (AID 1508616); settings: SH-SY5Y LACV cytopathicity rescue, ATP luminescence, 6 d; at 8.54 µM (top of the series) unless noted;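 note: top concentration of the series differs between compounds; 0% = infected DMSO wells and 100% = uninfected DMSO wells; higher means more rescue of cells from virus-induced death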
Procedure, shortened: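 Screening measures cell viability in LACV-infected SH-SY5Y cultures. Compound was added before virus (0.01 MOI), and ATP was detected by luminescence 6 days later.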

[6] = target: Calcium and integrin-binding protein 1 (Homo sapiens) (UniProt Q99828); test: Primary qHTS for Identification of Calcium Integrin Binding Protein 1 (CIB1) Competitor (AID 1508620); settings: CIB1-GST / FITC-alphaIIb peptide fluorescence polarization;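 note: GST tagged CIB1 binding a fluorescein labelled alphaIIb integrin peptide tracer; top concentration of the series differs between compounds; % is set by controls: 0 for no effect and ±100 for the full control effect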
Procedure, shortened: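 Fluorescence polarization competition: GST-tagged CIB1 (1 uM final) preincubated with compound 15 min at room temperature, then FITC-labelled alphaIIb peptide (100 nM final) added. After 15 min at room temperature, polarization read at Ex 480/Em 540.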

[7] = Primary qHTS for small molecule stabilizers of the endoplasmic reticulum resident proteome: Secreted ER Calcium Modulated Protein (SERCaMP) assay (AID 1508630); settings: SH-SY5Y GLuc-SERCaMP (Gaussia luciferase released on ER calcium loss) secretion, thapsigargin, luminescence; at 38.4 µM (top of the series); note: % is set by controls: 0 for no effect and ±100 for the full control effect
Procedure, shortened: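 The SH-SY5Y reporter protocol was run at 3 concentrations up to 38.3 uM (primary) or 11 concentrations (follow-up): 16 h compound, 100 nM thapsigargin for 4 h, then extracellular luciferase luminescence.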

[8] = target: Cytochrome P450 2D6 (Homo sapiens) (UniProt P10635); test: Cytochrome P450 family 2 subfamily D member 6 (CYP2D6) small molecule antagonists: luciferase biochemical (cell-free) qHTS assay (AID 1645840; active = well fitted curve in the direction sought with a large enough effect in the repeat runs; an effect the other way counts as inactive or inconclusive; note: nearly all actives have a fitted effect of over 55% in size; note: potency is the fitted concentration of half-maximal effect)
Procedure, shortened: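 P450-Glo CYP2D6 system: proluciferin substrate converted by enzyme to luciferin, read by luminescence proportional to activity. Enzyme-substrate mix with compound 10 min at room temperature, then NADPH regeneration 1 h before detection reagent.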

[9] = target: Cytochrome P450 3A4 (Homo sapiens) (UniProt P08684); test: Cytochrome P450 family 3 subfamily A member 4 (CYP3A4) small molecule antagonists: luciferase qHTS assay (AID 1645841; active = well fitted curve in the direction sought with a large enough effect in the repeat runs; an effect the other way counts as inactive or inconclusive; note: nearly all actives have a fitted effect of over 45% in size; note: potency is the fitted concentration of half-maximal effect)
[10] = target: Cytochrome P450 2C9 (Homo sapiens) (UniProt P11712); test: Cytochrome P450 family 2 subfamily C member 9 (CYP2C9) small molecule antagonists: luciferase qHTS assay (AID 1645842; active = well fitted curve in the direction sought with a large enough effect in the repeat runs; an effect the other way counts as inactive or inconclusive; note: % is set by controls: 0 for no effect and ±100 for the full control effect; nearly all actives have a fitted effect of over 55% in size); settings: P450-Glo CYP2C9 enzyme assay, luciferin luminescence; at 57.4 µM (top of the series)
Procedure, shortened: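 P450-Glo CYP2C9 system: proluciferin substrate with enzyme in mix containing 0.4% BSA, 10 min at room temperature, then NADPH regeneration solution added and incubated 1 h at 37C. Detection reagent stopped reaction; luminescence read after 20 min as RLU.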

[11] = Cytotoxicity counterscreen for inhibitors of SARS-CoV-2 cell entry (AID 1645845; calls by dose curve; note: % is set by controls: 0 for no effect and ±100 for the full control effect; nearly all actives have a fitted effect of over 50% in size); settings: cell viability (SARS-CoV-2 entry assay cells); at 57.1 µM (top of the series)
Procedure, shortened: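 Counterscreen run in the same HEK293-ACE2 line as the pseudotyped-particle entry assay, without particles. Viability after 48 h at 37 C was read as ATP luminescence, scaled between cell-containing and cell-free wells.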

[12] = Primary qHTS for inhibitors of nuclear receptor binding SET domain protein 2 (NSD2) in an RCH-ACV wild type WT cells (2C) (AID 1645877); note: nearly all actives have a fitted effect of over 70% in size; note: potency is the fitted concentration of half-maximal effect
Excerpt: Assay Provider: Jonathan D. Licht, MD
University of Florida College of Medicine, Gainesville, FL
Mutations in epigenetic regulators are common in relapsed pediatric acute lymphoblastic leukemia (ALL). Here, we uncovered the mechanism underlying the relapse of ALL driven by an activating mutation of the NSD2 histone methyltransferase (p.E1099K). […] Correction of this mutation restored glucocorticoid sensitivity. The transcriptional response to glucocorticoids was blocked in NSD2 mutant cells due to depressed glucocorticoid receptor (GR) levels and the failure of glucocorticoids to autoactivate GR expression. […] Pre-treatment of NSD2 p.E1099K cell lines and PDX samples with PRC2 inhibitors reversed glucocorticoid resistance in vitro and in vivo.
High-throughput drug screening of isogenic RCH-ACV cell lines was performed at the National Center for Advancing Translational Science (NCATS), National Institutes of Health as previously described (1). Briefly, isogenic RCH-ACV NSD2 p.E1099K mutant (9B) and WT cells (2C) were plated at 500 cells/well in a 1536-well plate with a 72-hour incubation with compounds prior to addition of CellTiter-Glo to assess cell viability. NCATS libraries screened include: NPC, MIPE 5.0, Kinase and NPACT. […]

[13] = target: Glutathione peroxidase 1 (Homo sapiens) (UniProt P07203); test: Primary qHTS Assay for Inhibitors of Recombinant Selenoprotein Glutathione Peroxidase 1 (GPX1) (AID 1845191); settings: recombinant GPX1, GR-coupled NADPH fluorescence, 15 min; activity, negative = inhibition: at 48.8 µM (top of the series); note: nearly all actives have a fitted effect of over 65% in size
Procedure, shortened: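 GR-coupled readout: NADPH consumption tracked by fluorescence, ex 340/em 450 nm, at t=0 and after 15 min at RT. Final mix 10 nM GPX1, 1 mM GSH, 0.5 mM CHP, 0.5 mM NADPH, 100 nM GR, 0.01% BSA, following 30 min enzyme–compound preincubation.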

[14] = target: Phospholipid hydroperoxide glutathione peroxidase GPX4 (Homo sapiens) (UniProt P36969); test: Primary qHTS Assay for Inhibitors of Recombinant Selenoprotein Glutathione Peroxidase 4 (GPX4) (AID 1845192); settings: recombinant GPX4, GR-coupled NADPH fluorescence, 15 min; activity change, negative = inhibition: at 50 µM (top of the series); note: nearly all actives have a fitted effect of over 65% in size
Procedure, shortened: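 Steps: GPX4 plus compound, 30 min RT; add GR/GSH/NADPH master mix; start with cumene hydroperoxide; read 340/450 nm fluorescence at 0 and 15 min. Finals were 200 nM GPX4, 1 mM GSH, 0.5 mM CHP, 0.5 mM NADPH, 100 nM GR.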

[15] = Quantitative High-Throughput drug screen in 47 multiple myeloma cell lines against the NCATS MIPE library collection: AMO1_DSMZ cell viability assay (AID 1918927; note: nearly all actives have a fitted effect of over 30% in size); settings: AMO1 myeloma cells viability, CellTiter-Glo ATP luminescence, 48 h; at 45.8 µM (top of the series)
Procedure, shortened: (§1)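 Myeloma cell lines, 500 cells per well, exposed to MIPE 4.0 library compounds for 48 h at 37C, 5% CO2. Viability from ATP by CellTiter-Glo luminescence; normalised to DMSO (100%) and media-only (0%) wells.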

[16] = Quantitative High-Throughput drug screen in 47 multiple myeloma cell lines against the NCATS MIPE library collection: ARP1_JJKsccF8 cell viability assay (AID 1918928; note: potency is the fitted concentration of half-maximal effect; nearly all actives have a fitted effect of over 40% in size); settings: ARP1 myeloma cells viability, CellTiter-Glo ATP, 48 h
Procedure, shortened: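 500 cells/well; MIPE 4.0 library pinned in; 48 h, 37 °C, 5% CO2; CellTiter-Glo ATP luminescence. Controls: DMSO = 100% viability, medium only = 0%.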

[17] = Quantitative High-Throughput drug screen in 47 multiple myeloma cell lines against the NCATS MIPE library collection: ARD_JJKsccE7 cell viability assay (AID 1918929); settings: ARD myeloma cell line viability, CellTiter-Glo, 48 h; at 45.8 µM (top of the series)
Procedure, shortened: as §1

[18] = Quantitative High-Throughput drug screen in 47 multiple myeloma cell lines against the NCATS MIPE library collection: Karpas620_DSMZ cell viability assay (AID 1918959); settings: Karpas620 myeloma viability, CellTiter-Glo ATP luminescence, 48 h; at 45.8 µM (top of the series); note: nearly all actives have a fitted effect of over 30% in size
Procedure, shortened: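 Steps: seed 500 cells per well; pin-transfer MIPE 4.0 library; incubate 48 h at 37C, 5% CO2, humidified; add CellTiter-Glo, 5 min room temperature; read luminescence.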

[19] = A High-Content qHTS Against Drug Library for the Identification of Small Molecules that Inhibit DYT1 Early Onset Primary Dystonia-Associated Cell Pathology (AID 1645839; calls by dose curve); settings: HEK293 Flp-In EGFP-delE TorsinA, punctate imaging, 48 h; at 91.7 µM (top of the series)
Procedure, shortened: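 Cells were seeded and left for 24 h, then dosed with compound alongside tetracycline induction of mutant EGFP-TorsinA. They were incubated for 48 h, fixed in 4% paraformaldehyde, permeabilized and imaged for mislocalization (%pathology) and cell count.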

[20] = Primary qHTS for inhibitors of nuclear receptor binding SET domain protein 2 (NSD2) in an isogenic RCH-ACV NSD2 p.E1099K mutant (9B) (AID 1645876); settings: RCH-ACV (leukaemia line) NSD2 E1099K (9B) viability, CellTiter-Glo, 72 h; at 91.9 µM (top of the series); note: % is set by controls: 0 for no effect and ±100 for the full control effect; nearly all actives have a fitted effect of over 70% in size

CN(CCCl)CCCl
inactive and 26.3 µM (active): Potency [12]
inactive: activity change, negative = inhibition [1] 7.29% [at 57.5 µM] | activity change, negative = cytotoxicity [2] -4.36% | outcome [3] | activity change, negative = cytotoxicity [4] -8.67% | activity change [5] -17.3% [at 4.29 µM] | activity change, negative = inhibition ([6]; at 57.7 µM (top of the series)) -4.85% | activity change, negative = inhibition ([6]; at 114 µM (top of the series)) -0.224% | activity change, negative = inhibition [7] 47% and 154% | Potency [8] | Potency [9] | activity change, negative = inhibition [10] -2.97% | activity change, negative = cytotoxicity [11] 1.54% and -7.57% | activity, negative = inhibition [13] 0.455% | outcome [13] | activity change, negative = inhibition [14] -2.75% | outcome [14] | viability, % of DMSO [15] 126% | viability [17] 103% | viability (% of DMSO) [18] 101%
active: Potency [16] 26400 nM

CCC(=O)N(c1ccccc1)C1(COC)CCN(CCn2nnn(CC)c2=O)CC1
active: Potency [9] 621 nM
inactive: activity change, negative = inhibition [1] -25.6% | activity change [5] -6.17% | activity change, negative = inhibition ([6]; at 228 µM (top of the series)) 1.89% | % pathology change, negative = correction [19] 7.51% | Potency [8] | activity change, negative = viability loss [20] -16.3% | Potency [12]

CCC(=O)N(c1ccccc1)C1(COC)CCN(CCc2cccs2)CC1
inactive: activity change, negative = inhibition [1] 8.94% | activity change [5] -0.746% | activity change, negative = inhibition ([6]; at 228 µM (top of the series)) 0.826% | % pathology change, negative = correction [19] -18.1%
active: Potency [8] 1420 nM | Potency [9] 1590 nM
